Measurements reported in ChEMBL document CHEMBL3585265, “Bacteria-Derived Compatible Solutes Ectoine and 5α-Hydroxyectoine Act as Intestinal Barrier Stabilizers to Ameliorate Experimental Inflammatory Bowel Disease” (J Nat Prod, 2015).

Tested on: Rattus norvegicus
Experiment: Toxicity in Wistar rat assessed as effect on colonic ICAM1 level administered rectally into colon by ELISA
Conditions: in vivo, other, strain Wistar

SMILES: O=[N+]([O-])c1cc([N+](=O)[O-])c(S(=O)(=O)O)c([N+](=O)[O-])c1
- Activity: Non-toxic
